Measured values published in US9340555B2, “Compounds as tyrosine kinase modulators” (Allergan, Inc., priority 2009, dated 2016).

Sequences of proteins named here, by UniProt entry; tags and fusion partners are left off. Residues count along the entry.
UniProt P35968, 20-1356: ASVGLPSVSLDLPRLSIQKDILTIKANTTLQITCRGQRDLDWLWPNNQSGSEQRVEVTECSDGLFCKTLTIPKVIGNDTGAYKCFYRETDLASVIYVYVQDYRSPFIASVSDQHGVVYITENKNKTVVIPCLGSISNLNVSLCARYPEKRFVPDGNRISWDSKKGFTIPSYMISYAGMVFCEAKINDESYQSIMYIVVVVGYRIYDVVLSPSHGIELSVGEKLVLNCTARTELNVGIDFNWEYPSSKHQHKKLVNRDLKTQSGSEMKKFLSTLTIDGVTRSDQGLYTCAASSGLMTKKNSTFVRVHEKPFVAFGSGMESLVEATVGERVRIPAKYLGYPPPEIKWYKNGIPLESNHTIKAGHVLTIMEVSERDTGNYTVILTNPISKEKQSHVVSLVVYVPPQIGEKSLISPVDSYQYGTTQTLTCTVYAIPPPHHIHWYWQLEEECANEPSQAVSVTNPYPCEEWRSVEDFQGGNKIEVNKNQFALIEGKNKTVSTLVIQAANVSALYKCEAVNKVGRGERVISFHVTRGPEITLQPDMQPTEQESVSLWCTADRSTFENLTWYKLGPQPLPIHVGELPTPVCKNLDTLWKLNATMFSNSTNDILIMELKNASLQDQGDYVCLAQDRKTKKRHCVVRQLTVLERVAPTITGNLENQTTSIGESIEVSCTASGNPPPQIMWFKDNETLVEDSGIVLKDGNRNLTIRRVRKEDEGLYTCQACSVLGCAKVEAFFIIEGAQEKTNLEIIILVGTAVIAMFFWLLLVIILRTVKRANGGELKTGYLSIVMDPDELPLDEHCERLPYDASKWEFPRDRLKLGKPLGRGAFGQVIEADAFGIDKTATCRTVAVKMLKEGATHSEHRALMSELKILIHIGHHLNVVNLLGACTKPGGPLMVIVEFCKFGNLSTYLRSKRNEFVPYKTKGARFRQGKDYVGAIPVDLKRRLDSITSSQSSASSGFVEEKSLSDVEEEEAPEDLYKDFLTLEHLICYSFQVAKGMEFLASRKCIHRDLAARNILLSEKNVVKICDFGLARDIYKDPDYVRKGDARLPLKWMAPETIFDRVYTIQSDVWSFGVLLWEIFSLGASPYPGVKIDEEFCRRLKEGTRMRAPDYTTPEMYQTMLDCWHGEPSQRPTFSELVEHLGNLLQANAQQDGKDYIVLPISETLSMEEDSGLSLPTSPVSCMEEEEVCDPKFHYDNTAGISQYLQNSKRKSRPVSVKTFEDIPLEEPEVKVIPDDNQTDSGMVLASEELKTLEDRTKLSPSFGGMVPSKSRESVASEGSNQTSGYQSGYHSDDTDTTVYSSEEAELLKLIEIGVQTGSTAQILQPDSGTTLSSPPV
UniProt P35968, 786-1356: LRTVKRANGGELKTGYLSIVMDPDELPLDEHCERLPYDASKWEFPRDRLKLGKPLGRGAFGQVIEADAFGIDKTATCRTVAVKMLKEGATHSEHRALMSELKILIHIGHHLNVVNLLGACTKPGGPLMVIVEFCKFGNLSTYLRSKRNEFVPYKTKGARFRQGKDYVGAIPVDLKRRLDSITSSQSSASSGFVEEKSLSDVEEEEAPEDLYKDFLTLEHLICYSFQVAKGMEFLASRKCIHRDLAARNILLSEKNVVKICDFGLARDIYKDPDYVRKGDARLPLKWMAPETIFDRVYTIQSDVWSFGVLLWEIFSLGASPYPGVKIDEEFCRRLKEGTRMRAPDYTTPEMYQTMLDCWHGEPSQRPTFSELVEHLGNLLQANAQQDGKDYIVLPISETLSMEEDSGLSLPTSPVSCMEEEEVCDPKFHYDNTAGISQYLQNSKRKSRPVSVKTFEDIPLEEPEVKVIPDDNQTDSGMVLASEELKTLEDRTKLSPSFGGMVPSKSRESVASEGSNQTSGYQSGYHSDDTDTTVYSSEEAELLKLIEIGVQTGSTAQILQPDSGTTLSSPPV
UniProt P17948, 27-1338, species assumed: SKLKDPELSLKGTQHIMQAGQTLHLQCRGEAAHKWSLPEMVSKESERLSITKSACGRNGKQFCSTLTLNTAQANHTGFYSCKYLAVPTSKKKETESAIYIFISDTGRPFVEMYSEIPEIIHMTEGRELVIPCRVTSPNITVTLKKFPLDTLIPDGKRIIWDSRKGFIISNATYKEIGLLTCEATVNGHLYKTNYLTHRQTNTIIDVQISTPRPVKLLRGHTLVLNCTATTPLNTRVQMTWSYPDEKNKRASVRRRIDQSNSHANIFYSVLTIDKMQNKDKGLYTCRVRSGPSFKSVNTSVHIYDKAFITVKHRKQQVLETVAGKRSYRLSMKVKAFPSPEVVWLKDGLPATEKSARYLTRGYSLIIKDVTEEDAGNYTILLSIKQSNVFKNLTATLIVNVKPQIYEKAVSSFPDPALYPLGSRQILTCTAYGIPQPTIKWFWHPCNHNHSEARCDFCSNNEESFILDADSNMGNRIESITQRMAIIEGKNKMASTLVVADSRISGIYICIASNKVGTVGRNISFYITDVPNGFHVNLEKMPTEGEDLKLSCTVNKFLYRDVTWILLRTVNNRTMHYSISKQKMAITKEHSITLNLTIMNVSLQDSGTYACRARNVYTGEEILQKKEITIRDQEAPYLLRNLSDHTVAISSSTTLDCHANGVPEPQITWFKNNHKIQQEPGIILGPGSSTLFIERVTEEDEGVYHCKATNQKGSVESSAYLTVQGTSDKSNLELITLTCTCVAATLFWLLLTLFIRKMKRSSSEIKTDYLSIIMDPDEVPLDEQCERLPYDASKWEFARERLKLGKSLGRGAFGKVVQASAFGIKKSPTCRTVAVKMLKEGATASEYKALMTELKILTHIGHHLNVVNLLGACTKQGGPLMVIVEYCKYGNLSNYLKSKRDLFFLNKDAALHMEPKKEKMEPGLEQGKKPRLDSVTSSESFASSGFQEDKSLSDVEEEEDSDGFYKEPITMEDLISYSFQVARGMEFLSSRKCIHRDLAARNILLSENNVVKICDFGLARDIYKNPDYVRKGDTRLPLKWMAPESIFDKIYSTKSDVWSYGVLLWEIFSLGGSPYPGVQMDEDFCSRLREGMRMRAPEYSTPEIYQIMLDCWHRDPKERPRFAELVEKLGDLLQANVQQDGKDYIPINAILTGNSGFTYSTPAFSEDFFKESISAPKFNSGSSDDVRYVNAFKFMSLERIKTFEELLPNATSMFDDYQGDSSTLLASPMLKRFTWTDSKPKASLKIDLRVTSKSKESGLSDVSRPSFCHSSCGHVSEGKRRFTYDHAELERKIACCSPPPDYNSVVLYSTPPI
UniProt P09619, 33-1106, species assumed: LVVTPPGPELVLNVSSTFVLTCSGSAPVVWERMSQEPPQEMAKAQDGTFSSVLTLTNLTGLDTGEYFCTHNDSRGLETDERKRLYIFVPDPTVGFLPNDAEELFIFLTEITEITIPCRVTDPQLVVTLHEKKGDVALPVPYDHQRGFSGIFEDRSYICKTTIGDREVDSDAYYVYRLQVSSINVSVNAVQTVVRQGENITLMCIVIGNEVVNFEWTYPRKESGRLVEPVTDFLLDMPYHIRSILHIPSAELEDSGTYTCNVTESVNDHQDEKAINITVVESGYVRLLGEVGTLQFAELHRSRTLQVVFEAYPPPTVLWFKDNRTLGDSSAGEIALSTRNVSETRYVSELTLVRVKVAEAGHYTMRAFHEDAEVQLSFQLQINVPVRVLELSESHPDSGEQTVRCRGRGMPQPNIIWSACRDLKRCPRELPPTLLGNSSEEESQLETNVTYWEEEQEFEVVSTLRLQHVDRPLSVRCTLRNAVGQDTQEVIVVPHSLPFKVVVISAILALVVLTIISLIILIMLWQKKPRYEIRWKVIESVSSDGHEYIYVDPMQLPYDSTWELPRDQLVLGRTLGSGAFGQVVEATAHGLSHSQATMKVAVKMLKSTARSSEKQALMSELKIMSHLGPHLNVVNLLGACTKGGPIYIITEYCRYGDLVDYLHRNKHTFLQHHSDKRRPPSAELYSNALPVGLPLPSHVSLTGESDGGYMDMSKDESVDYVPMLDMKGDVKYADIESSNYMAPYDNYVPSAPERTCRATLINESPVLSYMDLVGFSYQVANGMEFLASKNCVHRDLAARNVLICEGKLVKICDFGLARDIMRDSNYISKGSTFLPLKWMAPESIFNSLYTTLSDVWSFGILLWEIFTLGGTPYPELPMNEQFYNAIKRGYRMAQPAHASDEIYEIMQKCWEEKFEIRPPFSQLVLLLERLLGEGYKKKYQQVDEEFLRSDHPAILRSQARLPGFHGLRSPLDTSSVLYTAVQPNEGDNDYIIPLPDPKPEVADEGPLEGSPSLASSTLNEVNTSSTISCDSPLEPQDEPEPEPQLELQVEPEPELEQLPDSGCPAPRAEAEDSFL

Legend:
[1] = target: VEGFR2 (Homo sapiens (Human), UniProt P35968); test: VEGF Stimulated Ca++ Signal In Vitro (Cellular VEGFR2, FLIPR); assay type: cell-based; settings: HUVEC, VEGF stimulation (5 ng/mL), intracellular calcium
[2] = target: human VEGF receptor (VEGFR-2) (Homo sapiens (Human), UniProt P35968); test: VEGFR2 Kinase Assay (Enzymic VEGFR2); assay type: biochemical; settings: His-VEGFR-2 cytoplasmic domain, 3.6 µM ATP
Experimental: VEGFR2 Kinase Assay The cytoplasmic domain of the human VEGF receptor (VEGFR-2) was expressed as a Histidine-tagged fusion protein following infection of insect cells using an His engineered baculovirus. […] Kinase assays were performed in 96 well microtiter plates that were coated overnight with 30 µg of poly-Glu-[…]:1) in 10 mM Phosphate Buffered Saline (PBS), pH 7.2-7.4. The plates were incubated with 1% BSA and then washed four times with PBS prior to starting the reaction. […] Reactions were initiated by the addition 0.5 ng of purified protein. Following a ten minute incubation at 25° C., the reactions were washed four times with PBS containing 0.05% Tween-20. 100 µl of a monoclonal anti-phosphotyrosine antibody-peroxidase conjugate was diluted 1:10000 in PBS-Tween-20 and added to the wells for 30 minutes. Following four washes with PBS-Tween-20, 100 µl of 0-phenylenediamine Dihydrochloride in Phosphate-citrate buffer, containing urea hydrogen peroxide, was added to the wells for 7 minutes as a colorimetric substrate for the peroxidase. […] IC50 values for compound inhibition were calculated directly from graphs of optical density (arbitrary units) versus compound concentration following subtraction of blank values.

[3] = target: VEGFR1 (Homo sapiens (Human), UniProt P17948); test: Enzymic VEGFR1; assay type: biochemical
[4] = target: PDGFRβ (Homo sapiens (Human), UniProt P09619); test: Enzymic PDGFRβ; assay type: biochemical

Row | IC50 [1] | IC50 [2] | IC50 [3] | IC50 [4] | Structure (SMILES)
1 | 9 nM | 3 nM | 3 nM | 12 nM | CCN(CC)CCCNC(=O)c1cc2nccc(Oc3ccc(NC(=O)Nc4cc(C)ccc4F)cc3)c2s1 [Example 70, N-[3-(diethylamino)propyl]-7-[4-({[(2-fluoro-5-methylphenyl)amino]carbonyl}amino)phenoxy]thieno[3,2-b]pyridine-2-carboxamide]
2 | – | – | 10 nM | 15 nM | COC(=O)[C@@H]1C[C@@H](O)CN1CCCNC(=O)c1cc2nccc(Oc3ccc(NC(=O)Nc4cc(C)ccc4F)cc3)c2s1 (relative stereo) [Example 17, methyl rel-(2R,4S)-1-{3-[({7-[4-({[(2-fluoro-5-methylphenyl)amino]carbonyl}amino)phenoxy]thieno[3,2-b]pyridin-2-yl}carbonyl)amino]propyl}-4-hydroxypyrrolidine-2-carboxylate]
